Measured values from patent US20030077806A1.

Chains of the proteins cited; added tags and fusions are not shown. Lines headed by an entry give the natural chain unless they say otherwise; changes in a name come on top. Residues count along the entry.
mannose-6-phosphate (M6P) receptor on human cells (Fabry patient skin fibroblasts, HUVECs) (human), P11717, UniProt P11717, 41-2491: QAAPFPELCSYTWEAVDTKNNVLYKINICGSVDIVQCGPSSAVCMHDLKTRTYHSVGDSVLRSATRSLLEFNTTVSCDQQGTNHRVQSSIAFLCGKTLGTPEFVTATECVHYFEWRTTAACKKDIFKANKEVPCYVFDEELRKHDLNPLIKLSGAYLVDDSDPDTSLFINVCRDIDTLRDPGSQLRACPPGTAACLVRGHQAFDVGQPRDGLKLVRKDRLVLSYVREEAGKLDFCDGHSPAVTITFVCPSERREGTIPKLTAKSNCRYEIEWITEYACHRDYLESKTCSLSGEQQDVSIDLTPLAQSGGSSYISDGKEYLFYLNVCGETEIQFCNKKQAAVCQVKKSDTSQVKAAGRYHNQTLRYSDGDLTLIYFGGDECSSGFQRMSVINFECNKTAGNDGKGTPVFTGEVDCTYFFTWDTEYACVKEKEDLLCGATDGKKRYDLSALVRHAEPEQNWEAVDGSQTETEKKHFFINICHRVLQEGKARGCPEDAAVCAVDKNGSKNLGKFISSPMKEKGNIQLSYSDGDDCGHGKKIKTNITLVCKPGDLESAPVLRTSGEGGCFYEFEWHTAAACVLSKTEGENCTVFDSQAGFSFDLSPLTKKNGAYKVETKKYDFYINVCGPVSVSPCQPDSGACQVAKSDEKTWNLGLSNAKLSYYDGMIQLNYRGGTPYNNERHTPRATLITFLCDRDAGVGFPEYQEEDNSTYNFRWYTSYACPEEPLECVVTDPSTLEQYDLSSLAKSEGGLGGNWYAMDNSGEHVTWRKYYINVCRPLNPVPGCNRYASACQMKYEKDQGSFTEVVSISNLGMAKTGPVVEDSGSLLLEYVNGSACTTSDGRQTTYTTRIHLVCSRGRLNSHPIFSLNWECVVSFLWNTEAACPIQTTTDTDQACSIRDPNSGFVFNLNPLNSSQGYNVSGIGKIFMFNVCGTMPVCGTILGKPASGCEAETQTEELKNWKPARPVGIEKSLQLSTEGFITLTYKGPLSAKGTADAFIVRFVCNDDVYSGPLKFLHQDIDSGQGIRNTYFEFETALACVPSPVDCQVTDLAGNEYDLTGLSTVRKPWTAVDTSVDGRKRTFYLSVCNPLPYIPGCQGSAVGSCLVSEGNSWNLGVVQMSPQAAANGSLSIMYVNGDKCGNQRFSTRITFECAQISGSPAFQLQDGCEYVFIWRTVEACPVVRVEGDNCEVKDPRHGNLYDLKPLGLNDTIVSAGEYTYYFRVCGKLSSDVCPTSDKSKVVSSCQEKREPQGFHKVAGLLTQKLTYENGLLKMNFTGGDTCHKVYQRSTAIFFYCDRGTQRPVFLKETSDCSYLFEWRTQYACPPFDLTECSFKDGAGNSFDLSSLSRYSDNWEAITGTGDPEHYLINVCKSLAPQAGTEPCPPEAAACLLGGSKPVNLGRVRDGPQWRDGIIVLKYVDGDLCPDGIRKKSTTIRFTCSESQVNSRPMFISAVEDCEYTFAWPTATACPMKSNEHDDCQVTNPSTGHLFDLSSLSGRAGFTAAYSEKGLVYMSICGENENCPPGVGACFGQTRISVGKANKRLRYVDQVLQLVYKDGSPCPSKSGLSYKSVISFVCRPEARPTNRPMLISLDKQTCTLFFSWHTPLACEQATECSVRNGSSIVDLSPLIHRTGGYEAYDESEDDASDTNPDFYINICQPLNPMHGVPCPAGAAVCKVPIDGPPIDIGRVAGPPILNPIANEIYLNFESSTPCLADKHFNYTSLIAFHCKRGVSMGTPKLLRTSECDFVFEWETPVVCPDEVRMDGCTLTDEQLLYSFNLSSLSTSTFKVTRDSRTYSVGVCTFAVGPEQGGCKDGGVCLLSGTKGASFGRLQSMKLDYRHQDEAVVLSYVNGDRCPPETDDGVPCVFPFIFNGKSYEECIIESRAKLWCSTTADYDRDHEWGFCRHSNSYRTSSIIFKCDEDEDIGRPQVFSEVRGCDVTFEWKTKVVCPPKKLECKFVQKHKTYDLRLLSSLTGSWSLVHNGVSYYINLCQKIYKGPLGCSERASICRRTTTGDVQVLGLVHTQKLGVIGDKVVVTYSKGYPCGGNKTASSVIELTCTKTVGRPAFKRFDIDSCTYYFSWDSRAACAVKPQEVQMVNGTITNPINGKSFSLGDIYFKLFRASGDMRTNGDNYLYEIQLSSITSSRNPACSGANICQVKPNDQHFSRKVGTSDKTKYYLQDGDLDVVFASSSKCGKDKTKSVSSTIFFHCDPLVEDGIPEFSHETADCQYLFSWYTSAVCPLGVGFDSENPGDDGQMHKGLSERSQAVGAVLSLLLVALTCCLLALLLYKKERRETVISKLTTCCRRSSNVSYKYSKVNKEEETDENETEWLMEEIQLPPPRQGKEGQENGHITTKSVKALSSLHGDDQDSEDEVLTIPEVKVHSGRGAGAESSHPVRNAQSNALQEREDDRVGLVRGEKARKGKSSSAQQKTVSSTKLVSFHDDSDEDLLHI

Biological target: mannose-6-phosphate (M6P) receptor on human cells (Fabry patient skin fibroblasts, HUVECs) (human), P11717
Experiment: cell-based or functional assay

B1: human α-galactosidase A (α-Gal A), purified from or secreted by stably transfected human fibroblasts (pXAG-16; e.g. strain BRS-11), P06280 32-429 (enzyme)
chain: LDNGLARTPTMGWLHWERFMCNLDCQEEPDSCISEKLFMEMAELMVSEGWKDAGYEYLCIDDCWMAPQRDSEGRLQADPQRFPHGIRQLANYVHSKGLKLGIYADVGNKTCAGFPGSFGYYDIDAQTFADWGVDLLKFDGCYCDSLENLADGYKHMSLALNRTGRSIVYSCEWPLYMWPFQKPNYTEIRQYCNHWRNFADIDDSWKSIKSILDWTSFNQERIVDVAGPGGWNDPDMLVIGNFGLSWNQQVTQMALWAIMAAPLFMSNDLRHISPQAKALLQDKDVIAINQDPLGKQGYQLRQGDNFEVWERPLSGLAWAVAMINRQEIGGPRSYTIAVASLGKGVACNPACFITQLLPVKRKLGFYEWTSRLRSHINPTGTVLLQLENTMQMSLKDLL
modifications: here or on the partner: N-linked oligosaccharides bearing sialic acid and mannose-6-phosphate (M6P) residues; sites not numbered
intracellular α-Gal A activity in Fabry fibroblasts co-cultured with BRS-11 insert + M6P, Day 1 (units/mg total protein): 4 | intracellular α-Gal A activity in Fabry fibroblasts co-cultured with BRS-11 insert + M6P, Day 2 (units/mg total protein): 6 | intracellular α-Gal A activity in Fabry fibroblasts co-cultured with BRS-11 insert + M6P, Day 3 (units/mg total protein): 9 | intracellular α-Gal A activity in Fabry fibroblasts co-cultured with BRS-11 insert, Day 1 (units/mg total protein): 13 | intracellular α-Gal A activity in Fabry fibroblasts co-cultured with BRS-11 insert, Day 2 (units/mg total protein): 40 | intracellular α-Gal A activity in Fabry fibroblasts co-cultured with BRS-11 insert, Day 3 (units/mg total protein): 85 | intracellular α-Gal A enzyme level in HUVECs cultured overnight with 7500 units of α-Gal A, against control cells: 10 fold
